## Measured affinities in a library of Ab-14 heavy chain variants

Target peptide (SARS-CoV-2 spike, HR2 region): PDVDLGDISGINAS

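The starting antibody came from a phage panning campaign against this peptide. Variants in AAYL49 differ from the parent at up to three CDR positions; double and triple changes were sampled at random. AlphaSeq pools MATa yeast showing the antibodies with MATalpha yeast showing the peptide. After mating in shaken culture at 30 °C for 16 h, diploids were selected and their barcode pairs sequenced. A regression on co-assayed BCL2-family reference pairs converts the normalised counts of each replicate to an apparent Kd. There are three technical replicates.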

Parent scFv Ab-14: VH joined to VL by the linker GGGGSGGGGSGGGGS. Changes lie in the heavy chain CDRs alone.
VH: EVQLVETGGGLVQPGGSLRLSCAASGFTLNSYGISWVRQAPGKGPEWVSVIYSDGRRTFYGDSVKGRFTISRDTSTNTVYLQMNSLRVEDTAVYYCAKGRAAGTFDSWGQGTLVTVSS
VL: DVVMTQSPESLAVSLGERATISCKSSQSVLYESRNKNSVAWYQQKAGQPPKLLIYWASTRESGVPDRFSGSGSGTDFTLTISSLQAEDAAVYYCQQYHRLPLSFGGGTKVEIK

The parent's heavy chain CDRs are GFTLNSYGIS, VIYSDGRRTFYGDSVK, GRAAGTFDS; each variant's own CDRs replace them letter for letter.
Values are log10 of the apparent Kd in nM; lower means stronger binding.
Replicates are averaged; those with no signal do not enter the mean.
A pair that was not seen in any replicate is written "nd"; this usually means weak binding, but a binder can also be missed.
Nonspecific signal, from three strains lacking the peptide, appeared in 15% of pairings of library AAYL49, centred on 4.06 (5% of these signals below 2.83); values are not corrected for it.

{"CDR-H1": "GFTPNSYGIS", "CDR-H2": "VIYSDGRRTFYGDDVK", "CDR-H3": "GRAAGTWDS", "log10 Kd (nM), mean": "2.78", "seen in": "2 of 3"}
{"CDR-H1": "GFTLNSDGIS", "CDR-H2": "VFYSDGRITFYGDSVK", "CDR-H3": "GRAAGTFDS", "log10 Kd (nM), mean": "4.62", "seen in": "2 of 3"}
{"CDR-H1": "GFTLNSYGIS", "CDR-H2": "VIYYDGRPTFYGDSVK", "CDR-H3": "GRAAGTFDL", "log10 Kd (nM), mean": "5.17", "seen in": "1 of 3"}
{"CDR-H1": "GFTLNSYGIS", "CDR-H2": "VIYSDGRRTFYGDSVK", "CDR-H3": "GRHVGTFDS", "log10 Kd (nM), mean": "1.48", "seen in": "3 of 3"}
{"CDR-H1": "GFTLNSDGID", "CDR-H2": "VIYSDGRRTMYGDSVK", "CDR-H3": "GRAAGTFDS", "log10 Kd (nM), mean": "nd", "seen in": "0 of 3"}
{"CDR-H1": "GFTLNSYGIS", "CDR-H2": "DIYSDGERTFYGDSVK", "CDR-H3": "GRAAGTFTS", "log10 Kd (nM), mean": "nd", "seen in": "0 of 3"}
{"CDR-H1": "GCTLNSYGAS", "CDR-H2": "VIYSDGRRTFYGDSVK", "CDR-H3": "GRAAGTFDS", "log10 Kd (nM), mean": "4.03", "seen in": "1 of 3"}
{"CDR-H1": "GFWLNMYGIS", "CDR-H2": "VIYSDGRRTFYGDSVY", "CDR-H3": "GRAAGTFDS", "log10 Kd (nM), mean": "nd", "seen in": "0 of 3"}
{"CDR-H1": "GFTLNSYGIS", "CDR-H2": "VIASDGLRPFYGDSVK", "CDR-H3": "GRAAGTFDS", "log10 Kd (nM), mean": "nd", "seen in": "0 of 3"}
{"CDR-H1": "GFTLNSYGIS", "CDR-H2": "VIYSLGHRTFYGDSVK", "CDR-H3": "GRVAGTFDS", "log10 Kd (nM), mean": "nd", "seen in": "0 of 3"}
{"CDR-H1": "GFTLNSYGIS", "CDR-H2": "VIYSDGRRTFIGDSQK", "CDR-H3": "GRAAGTFDS", "log10 Kd (nM), mean": "nd", "seen in": "0 of 3"}
{"CDR-H1": "GFTLNSYGIS", "CDR-H2": "VIYSDTRRTFYGDSVK", "CDR-H3": "GRAAGTIDY", "log10 Kd (nM), mean": "nd", "seen in": "0 of 3"}
{"CDR-H1": "GFGLNSYDIS", "CDR-H2": "VIYSDGRRTFYGDSVK", "CDR-H3": "GRWAGTFDS", "log10 Kd (nM), mean": "nd", "seen in": "0 of 3"}
{"CDR-H1": "GFTLNSYGIS", "CDR-H2": "VIYSDGRRTFYGDSWK", "CDR-H3": "GRNAGTFDL", "log10 Kd (nM), mean": "2.34", "seen in": "3 of 3"}
{"CDR-H1": "GFTLDSYGIS", "CDR-H2": "VIYSDGRRTEYGHSVK", "CDR-H3": "GRAAGTFDS", "log10 Kd (nM), mean": "nd", "seen in": "0 of 3"}
{"CDR-H1": "GFTLNSYGIV", "CDR-H2": "IIYSDGRRTFYGDSVK", "CDR-H3": "GRAAATFDS", "log10 Kd (nM), mean": "nd", "seen in": "0 of 3"}
{"CDR-H1": "GFTLNSYGIS", "CDR-H2": "VIYSDGRRTFYGDPVW", "CDR-H3": "GRAAGTHDS", "log10 Kd (nM), mean": "nd", "seen in": "0 of 3"}
{"CDR-H1": "GFTLFSYGIS", "CDR-H2": "VIYSDSRRTFYGDSVE", "CDR-H3": "GRAAGTFDS", "log10 Kd (nM), mean": "nd", "seen in": "0 of 3"}
{"CDR-H1": "GFTLNSYGIS", "CDR-H2": "NILSRGRRTFYGDSVK", "CDR-H3": "GRAAGTFDS", "log10 Kd (nM), mean": "nd", "seen in": "0 of 3"}
{"CDR-H1": "GFTLNSYGIS", "CDR-H2": "VIYSYGFRTFYGDSVK", "CDR-H3": "GRAAGTFIS", "log10 Kd (nM), mean": "3.44", "seen in": "1 of 3"}
{"CDR-H1": "GFTLNSYGIS", "CDR-H2": "VIYSDGRRTFYGDSVK", "CDR-H3": "KRAAGTHDS", "log10 Kd (nM), mean": "2.41", "seen in": "3 of 3"}
{"CDR-H1": "GFTLNSYGQS", "CDR-H2": "VIYSDGLRTFYGDSSK", "CDR-H3": "GRAAGTFDS", "log10 Kd (nM), mean": "4.76", "seen in": "3 of 3"}
{"CDR-H1": "GDTLNSEGIS", "CDR-H2": "VIYSDGRRIFYGDSVK", "CDR-H3": "GRAAGTFDS", "log10 Kd (nM), mean": "nd", "seen in": "0 of 3"}
{"CDR-H1": "GFTLNSFGIS", "CDR-H2": "VIYSDGYRTFYGDSVC", "CDR-H3": "GRAAGTFDS", "log10 Kd (nM), mean": "3.22", "seen in": "1 of 3"}
{"CDR-H1": "GFTLNSYGIS", "CDR-H2": "VIASDGERTTYGDSVK", "CDR-H3": "GRAAGTFDS", "log10 Kd (nM), mean": "nd", "seen in": "0 of 3"}
{"CDR-H1": "GSTLNSYGIS", "CDR-H2": "VIYSDGRRTFYGDSVK", "CDR-H3": "GRAACTFQS", "log10 Kd (nM), mean": "0.77", "seen in": "3 of 3"}
{"CDR-H1": "GFTLNSYGIS", "CDR-H2": "AIYSDGRRDFYGDSVK", "CDR-H3": "GRAAGWFDS", "log10 Kd (nM), mean": "3.11", "seen in": "1 of 3"}

Picked from the list: the 3 lowest averages where every replicate gave a value.

CDR-H1,CDR-H2,CDR-H3,"log10 Kd (nM), mean",seen in
GSTLNSYGIS,VIYSDGRRTFYGDSVK,GRAACTFQS,0.77,3 of 3
GFTLNSYGIS,VIYSDGRRTFYGDSVK,GRHVGTFDS,1.48,3 of 3
GFTLNSYGIS,VIYSDGRRTFYGDSWK,GRNAGTFDL,2.34,3 of 3

Source: Engelhart et al. 2022 (doi:10.1038/s41597-022-01779-4), MIT Lincoln Laboratory and A-Alpha Bio; data file from the FLAb repository.